In patent US10364212B2, “Process for the preparation of enclomiphene citrate having needle shaped crystal habit” (F.I.S.—FABBRICA ITALIANA SINTETICI S.P.A., priority 2016, dated 2019):

Conditions: room temperature and 95% RH, 17 days

Compound: CCN(CC)CCOc1ccc(/C(=C(/Cl)c2ccccc2)c2ccccc2)cc1.O=C(O)CC(O)(CC(=O)O)C(=O)O [Ethanamine, 2-[4-[(1E)-2-chloro-1,2-diphenylethenyl]phenoxy]-N,N-diethyl-, 2-hydroxy-1,2,3-propanetricarboxylate (1:1)]
- outcome of stability study: remains thermodynamically stabile

Compound: CCN(CC)CCOc1ccc(/C(=C(/Cl)c2ccccc2)c2ccccc2)cc1.O=C(O)CC(O)(CC(=O)O)C(=O)O [Enclomiphene citrate having non-needle crystals] [Ethanamine, 2-[4-[(1E)-2-chloro-1,2-diphenylethenyl]phenoxy]-N,N-diethyl-, 2-hydroxy-1,2,3-propanetricarboxylate (1:1), reference compound]
- outcome of stability study (listed as Enclomiphene having non-needle crystals): fails the stability studies

Where two headings read alike, the source gives them in different places.
